This is an account of results in patent publication US8399503B2, “Spirocyclic azaindole derivatives” (Gruenenthal GmbH, priority 2006, dated 2013).

Protein sequences, listed by entry. Tags and fused reporters are not part of them.
UniProt P35372, whole entry, looked up: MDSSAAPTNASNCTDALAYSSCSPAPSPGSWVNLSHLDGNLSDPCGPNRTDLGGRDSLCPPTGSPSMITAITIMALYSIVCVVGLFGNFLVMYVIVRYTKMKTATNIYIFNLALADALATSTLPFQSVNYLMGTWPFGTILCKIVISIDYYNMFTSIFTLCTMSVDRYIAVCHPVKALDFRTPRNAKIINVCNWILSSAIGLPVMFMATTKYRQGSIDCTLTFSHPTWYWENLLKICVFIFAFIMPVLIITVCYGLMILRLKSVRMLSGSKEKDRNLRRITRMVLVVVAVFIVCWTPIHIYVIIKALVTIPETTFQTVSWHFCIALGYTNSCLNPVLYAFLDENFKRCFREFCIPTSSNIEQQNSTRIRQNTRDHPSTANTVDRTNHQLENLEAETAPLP

For one assay, the target named is human μ-opiate receptor (Homo sapiens, UniProt P35372). The assay can be described thus: μ binding: [3H]-naloxone displacement, membrane preparation of CHO-K1 cells expressing the human μ-opiate receptor.
The next assay concerns rats. The assay can be described thus: Analgesia testing in the tail-flick test in rats. The note with it: Rat, i. v.; at effect maximum, 20 minutes after administration. Background: Thermal pain tests record how soon the animal reacts.

As usually defined, the Ki is a measure of affinity in units of concentration, obtained from inhibition or displacement. On human μ-opiate receptor, `CN(C)C1(c2cccc(F)c2)CCC2(CC1)OCCc1c2[nH]c2ncccc12` (stereo not drawn) yielded a Ki of 31.7 nM.
At human μ-opiate receptor, `COCCCC1(N(C)C)CCC2(CC1)OCCc1c2[nH]c2ncccc12` (stereo not drawn) returned a Ki of 83.5 nM. This Ki is about 2.6-fold higher than that of the molecule before.
On human μ-opiate receptor, `CN(C)C1(CCc2ccccc2)CCC2(CC1)OCCc1c2[nH]c2ncccc12` (stereo not drawn) yielded a Ki of 1.4 nM.
Still for that read-out and setting: next, `CN(C)C1(c2ccccc2)CCC2(CC1)OCCc1c2[nH]c2ccncc12` (stereo not drawn): 14.7 nM; `CN(C)C1(c2cc3ccccc3s2)CCC2(CC1)OCCc1c2[nH]c2ncccc12` (stereo not drawn): 56.7 nM; `CN(C)C1(CCc2ccccc2)CCC2(CC1)OCCc1c2[nH]c2ncc(C(F)(F)F)cc12` (stereo not drawn): 38 nM.
The same measure, in the same setting: as for `Cc1cccc(C2(N(C)C)CCC3(CC2)OCCc2c3[nH]c3ncccc23)c1` (stereo not drawn), the figure is 81.7 nM.
Regarding `CN(C)C1(c2ccc3c(c2)OCO3)CCC2(CC1)OCCc1c2[nH]c2ncccc12` (stereo not drawn), the Ki at human μ-opiate receptor amounted to 77.3 nM.
The same measure, in the same setting: as for `CN(C)C1(c2ccccc2)CCC2(CC1)OCCc1c2[nH]c2ccncc12` (single isomer, unassigned), the figure is 1.9 nM; as for `CCC1(N(C)C)CCC2(CC1)OCCc1c2[nH]c2ncccc12` (stereo not drawn), 1 nM.
Take `CN(C)C1(c2ccccc2)CCC2(CC1)OCCc1c2[nH]c2ncccc12` (stereo not drawn): the “Tail-flick ED50” value in the assay on rats was “Rat, i. v. ED50: 15 μg/kg”.
As to `CN(C)C1(c2cccs2)CCC2(CC1)OCCc1c2[nH]c2ccncc12` (stereo not drawn), the Ki on human μ-opiate receptor turned out to be 303 nM.
Still for that read-out and setting: as for `CNC1(c2cccs2)CCC2(CC1)OCCc1c2[nH]c2ncccc12` (stereo not drawn), the figure is 48.3 nM; as for `CN(C)C1(c2ccccc2)CCC2(CC1)OCCc1c2[nH]c2ncc(C(F)(F)F)cc12` (stereo not drawn), 638 nM; as for `CNC1(c2ccccc2)CCC2(CC1)OCCc1c2[nH]c2ncccc12` (stereo not drawn), 637 nM.
